# Antibody variant affinities, Ab-14 light chain, assay 1

The measurements come from Engelhart et al. 2022 (doi:10.1038/s41597-022-01779-4) through the FLAb antibody collection.

Antigen: PDVDLGDISGINAS, a 14-residue peptide of the SARS-CoV-2 spike HR2 region.

Parent: Ab-14, a human scFv built as VH, the linker GGGGSGGGGSGGGGS, VL. Only the CDRs of the light chain vary.
VH: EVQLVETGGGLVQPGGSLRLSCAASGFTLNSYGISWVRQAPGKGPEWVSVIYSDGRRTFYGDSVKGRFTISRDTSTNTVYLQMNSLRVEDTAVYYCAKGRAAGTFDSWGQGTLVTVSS
VL: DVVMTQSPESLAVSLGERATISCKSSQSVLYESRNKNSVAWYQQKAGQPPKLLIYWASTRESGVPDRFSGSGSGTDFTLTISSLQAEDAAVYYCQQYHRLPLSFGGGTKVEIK

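The parent was found by panning a naive human phage display library on the peptide. Variants in AAYL50 differ from the parent at up to three CDR positions; double and triple changes were sampled at random. The scFvs were displayed on barcoded MATa yeast, the peptide on MATalpha yeast. The frequency of each diploid, read from paired DNA barcodes, reflects how well the two displayed proteins bind. Scores were corrected for input abundance and mapped to Kd with protein pairs of known affinity run in the same pool. Mating was done three times.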

Positions count from residue 1 of the parent VL; V29D puts D in place of V. Every variant below is changed at E61 of the VL (sequential numbering). Scale: log10 of Kd in nM, estimated from mating counts; low values are strong binders. Replicates are averaged; those with no signal do not enter the mean. A pair that was not seen in any replicate is written "no signal"; this usually means weak binding, but a binder can also be missed. In this assay the parent's reference entry averaged 0.65; its copy inside this library read 1.68.

* V29D R60P E61L = 2.15 (3 of 3 replicates)
* S25I Q27Y E61M = 1.45 (3 of 3 replicates)
* S25Q E61R H98S = 0.83 (3 of 3 replicates)
* S26F V29S E61R = 2.49 (3 of 3 replicates)
* Q27S E61K S62P = 0.90 (3 of 3 replicates)
* E61L Y97K L102D = 5.35 (1 of 3 replicates)
* R34C R60S E61K = no signal (0 of 3 replicates)
* E32H S58K E61G = no signal (0 of 3 replicates)
* N35S E61R Y97D = no signal (0 of 3 replicates)
* Y31E E61F L100I = 2.82 (1 of 3 replicates)
* K24P E61M R99Q = 1.67 (3 of 3 replicates)
* E32R N35G E61T = 3.29 (3 of 3 replicates)
* W56E E61N R99N = 1.02 (3 of 3 replicates)
* E61G Q96C Y97D = 2.57 (3 of 3 replicates)
* W56C A57T E61C = 2.46 (3 of 3 replicates)
* V29E E61H Y97N = no signal (0 of 3 replicates)
* S26Q E61F Y97W = 1.90 (3 of 3 replicates)
* S25H E61Y L102A = 1.05 (3 of 3 replicates)
* A57P E61I S103R = no signal (0 of 3 replicates)
* S25L E61N P101N = no signal (0 of 3 replicates)
* K24A S28T E61T = 2.27 (3 of 3 replicates)
* K24P E61Q L102K = 5.20 (1 of 3 replicates)
* Q27R E61C = 4.32 (1 of 3 replicates)
* N35S E61Y Q95N = 3.51 (1 of 3 replicates)
* E61I S103M = 5.01 (1 of 3 replicates)
* A57H E61K L102D = no signal (0 of 3 replicates)
* A40V E61T = 5.33 (1 of 3 replicates)
* S25C Q27P E61H = 0.27 (3 of 3 replicates)
* S26P E61S S103H = 1.85 (3 of 3 replicates)
* S26V S33W E61V = 1.44 (3 of 3 replicates)
* E61D = 1.07 (3 of 3 replicates)
* E61R Y97S = 4.69 (2 of 3 replicates)
* V39E E61G Y97I = 4.81 (1 of 3 replicates)
* Q27H S28W E61L = 1.18 (3 of 3 replicates)
* R60A E61F P101D = 3.97 (3 of 3 replicates)
* S38A W56G E61F = 0.39 (3 of 3 replicates)
* Y31S E61F R99Y = 2.77 (3 of 3 replicates)
* K24D W56S E61S = 0.26 (3 of 3 replicates)
* L30C E61H = no signal (0 of 3 replicates)
* T59Y E61M P101K = no signal (0 of 3 replicates)
* S28V E61Q H98V = 3.28 (2 of 3 replicates)
* R34T W56V E61I = 1.90 (3 of 3 replicates)

Again, the first 3 entries without any signal:

changes,"log10 Kd (nM), mean",replicates with signal
R34C R60S E61K,no signal,0 of 3
E32H S58K E61G,no signal,0 of 3
N35S E61R Y97D,no signal,0 of 3

Background: pairings of library AAYL50 with three empty control strains gave a value in 18% of cases (median 4.19, 5th percentile 2.99). Values in that range, when seen in few replicates, are hard to tell from nonspecific mating.